Test results published in the NIST ThermoML archive (doi:10.1016/j.jct.2011.06.007).
Numbers after ± are expanded uncertainties.

Experiment: activity coefficient (dimensionless); of the first substance listed, at infinite dilution; xn = mol fraction of the nth substance listed
Settings: 101 kPa, Liquid, Chromatography, x1 = 0

CCCCOCCCC [dibutyl ether] + CCCC[N+]1(C)CCCC1.N#C[B-](C#N)(C#N)C#N
Settings | activity coefficient
318.15 K | 11.6 ± 0.8
328.15 K | 10.9 ± 0.7
338.15 K | 10.6 ± 0.7
348.15 K | 10.2 ± 0.7
358.15 K | 9.7 ± 0.7
368.15 K | 8.41 ± 0.57
